Assay results as given in PubChem BioAssay AID588674 (Broad Institute, 2011).
The list shows a part of the results, in another mix than the full data. Activity calls are given as the source filed them.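 Rule for the calls: active = mean inhibition of at least 75% with every replicate also reaching 75%; inconclusive = mean inhibition at least 75% but some replicate below; inactive = mean inhibition below 75%.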

Assay: reduction of Shn3 3'UTR firefly luciferase signal, primary screen, Schnurri-3 inhibitor project, cell-based, Clone20 osteoblasts, set 2 (AID 588674);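 note: 0% = median of neutral control wells and 100% = pilot-screen positive control compound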
Settings: Clone20 osteoblast Shn3 3'UTR firefly luciferase, 24 h; at 12.5 µM; hits give high values

Q: Which inhibition does the source give for Clc1n[nH]nc1-c1nn[nH][15n]1 here?
A: inactive: 6.39%

Q: For O=P1(N(CCCl)CCCl)NCCC(C(F)(F)F)O1 (stereo not given), which inhibition is on record?
A: inactive: 6.38%

Q: For COc1ccccc1CNC(=O)COC(=O)C(O)(c1ccccc1)c1ccccc1, which inhibition is on record?
A: inactive: -3.16%

Q: Which inhibition does the source give for CN(C(=O)Cc1ccc(Cl)c(Cl)c1)[C@@H]1CCCC[C@H]1N1CCCC1 here?
A: inactive: 3.65%

Q: With CC(C)/C=N\N=C(\N)N[N+](=O)[O-] as the compound, how does the inhibition read?
A: inactive: -9.6%

Q: For CC1(CBr)Cn2c(nc3ccccc3c2=O)S1 (stereo not given), which inhibition is on record?
A: inactive: -17.3%

Q: For CS(=O)(=O)c1ccc(Cl)c(NC(=O)COC(=O)C(O)(c2ccccc2)c2ccccc2)c1, which inhibition is on record?
A: inactive: 12.1%

Q: For COc1cc(C(=O)NCC2(N3CCOCC3)CCCCC2)cc(Cl)c1OC(C)C, which inhibition is on record?
A: inactive: 32.4%

Q: With O=[As](O)(O)c1cccnc1 as the compound, how does the inhibition read?
A: inactive: -4.19%

Q: With O=[As](O)(c1cccc(O)c1)c1cccc(O)c1 as the compound, how does the inhibition read?
A: inactive: 3.36%

Q: For Cc1cccc(OCC(=O)OC2CN3CCC2CC3)c1 (stereo not given), which inhibition is on record?
A: inactive: 3.11%

Q: Which inhibition does the source give for Cc1ccc(NCCc2c([N+](=O)[O-])cc([N+](=O)[O-])cc2[N+](=O)[O-])cc1 here?
A: inactive: -32.3%

Q: For Nc1cccc2c([As](=O)(O)O)cccc12, which inhibition is on record?
A: inactive: 16.8%

Q: With CCCOP(=S)(Nc1nc(N)cc(=O)[nH]1)OCCC as the compound, how does the inhibition read?
A: inactive: 4.92%

Q: With CCOP(=O)(Nc1cccc2ccccc12)OCC as the compound, how does the inhibition read?
A: inactive: 21.9%

Q: Which inhibition does the source give for COc1cc(C2NCCC3(OCCO3)C2(C)C)cc(OC)c1OC (stereo not given) here?
A: inactive: -3.2%

Q: For O=P(Nc1nccs1)(c1ccccc1)c1nc2ccccc2s1 (stereo not given), which inhibition is on record?
A: inactive: -10.5%

Q: Which inhibition does the source give for O=P(Nc1nccs1)(Oc1ccccc1)Oc1ccccc1 here?
A: inactive: -15.5%

Q: For CCOP1(=S)c2c(C)nn(CCC#N)c2N=C(c2ccccc2F)N1C (stereo not given), which inhibition is on record?
A: inactive: 32.5%

Q: For CS(=O)(=O)c1cc([N+](=O)[O-])c2no[n+]([O-])c2c1, which inhibition is on record?
A: inactive: 6.3%

Q: For O=C(O)COc1ccc([As](=O)(O)O)cc1[N+](=O)[O-], which inhibition is on record?
A: inactive: 5.93%

Q: For Nc1ccccc1[As](=O)(O)c1ccccc1, which inhibition is on record?
A: inactive: -13.3%

Q: Which inhibition does the source give for NC(=O)Nc1ccc([As](=O)(O)O)cc1 here?
A: inactive: -8.48%

Q: Which inhibition does the source give for CN(C(=O)Cc1ccccc1)[C@@H]1CC[C@]2(CCCO2)C[C@H]1N1CCCC1 here?
A: inactive: -1.23%

Q: For CCOP1(=S)c2c(C)nn(CCC#N)c2N=C(c2ccc(F)cc2)N1C (stereo not given), which inhibition is on record?
A: inactive: -0.772%

Q: Which inhibition does the source give for N#CCCN(C(=O)COC(=O)C(O)(c1ccccc1)c1ccccc1)c1ccc(F)cc1 here?
A: inactive: -16%

Q: For CN(C(=O)Cc1ccc(Cl)c(Cl)c1)[C@H]1CC[C@@]2(CCCO2)C[C@@H]1N1CCCC1, which inhibition is on record?
A: inactive: 0.089%

Q: Which inhibition does the source give for CN(C)C(=O)c1cc([N+](=O)[O-])cc2c1-c1c(cc([N+](=O)[O-])cc1[N+](=O)[O-])C2=O here?
A: inactive: 56.1%

Q: For O=[N+]([O-])c1ccc2c(c1)nnn2O, which inhibition is on record?
A: inactive: -15.3%

Q: For COc1cc(C(=O)NCC2(N3CCOCC3)CCCCC2)ccc1OCC(C)C, which inhibition is on record?
A: inactive: 4.67%

Q: With O=[N+]([O-])c1ccc(-c2cc([N+](=O)[O-])c(O)c([N+](=O)[O-])c2)cc1 as the compound, how does the inhibition read?
A: inactive: -26.2%

Q: Which inhibition does the source give for O=[As](O)(c1ccc(O)cc1)c1ccccc1O here?
A: inactive: -9.38%

Q: With C[As](=O)(O)c1cccc(C(=O)O)c1 as the compound, how does the inhibition read?
A: inactive: 0.0355%

Q: Which inhibition does the source give for Cc1ccc(OP(=O)(Nc2ccc([N+](=O)[O-])cn2)Oc2ccc(C)cc2)cc1 here?
A: inactive: -15.6%

Q: For Cc1ccc2nc3c(c(C)c2c1)CC(C(Cl)Cl)S3 (stereo not given), which inhibition is on record?
A: inactive: -41.5%

Q: Which inhibition does the source give for ClCCSc1nnc(-c2cccnc2)o1 here?
A: inactive: -27.5%

Q: For CC(C)c1ccc(OP(=O)(Nc2ccccn2)Oc2ccccc2F)cc1 (stereo not given), which inhibition is on record?
A: inactive: 15%

Q: With COC(=O)C1(C)COP(=O)(N2CCCCCC2)OC1 (stereo not given) as the compound, how does the inhibition read?
A: inactive: 75%

Q: Which inhibition does the source give for O=[N+]([O-])c1cc([N+](=O)[O-])c(-c2ccn[nH]2)s1 here?
A: inactive: -14.4%

Q: For CCN(CC)C(=S)SC(NC=O)C(Cl)(Cl)Cl (stereo not given), which inhibition is on record?
A: inactive: 64.2%

Q: For O=C(OC1CN2CCC1CC2)c1cccc2[nH]cnc12 (stereo not given), which inhibition is on record?
A: inactive: 3.72%

Q: For CC(C)NC(=O)NP(=O)(Oc1ccccc1)Oc1ccccc1, which inhibition is on record?
A: inactive: -13.8%

Q: With Cc1c2c(nc3ccccc13)SC(C(Cl)Cl)C2 (stereo not given) as the compound, how does the inhibition read?
A: inactive: -15.1%

Q: Which inhibition does the source give for Cc1cc(=O)[nH]c(N[N+](=O)[O-])n1 here?
A: inactive: -5.35%

Q: Which inhibition does the source give for O=C(OC1CN2CCC1CC2)C12CC3CC(CC(C3)C1)C2 (stereo not given) here?
A: inactive: -2.86%

Q: With O=P1(N(CCCl)CCCl)OCCCN1CCCl (stereo not given) as the compound, how does the inhibition read?
A: inactive: -6.47%

Q: With O=P1(N(CCCl)CCCl)Nc2ccccc2N1 as the compound, how does the inhibition read?
A: inactive: -10.1%

Q: For COc1cc(I)ccc1[As](=O)(O)O, which inhibition is on record?
A: inactive: -9.54%

Q: With COc1ccc2nc(NP(=O)(c3ccccc3)c3ccccc3)sc2c1 as the compound, how does the inhibition read?
A: inactive: 11.2%

Q: For O=[N+]([O-])c1cc(Oc2ccc([N+](=O)[O-])cc2C(F)(F)F)cc([N+](=O)[O-])c1, which inhibition is on record?
A: inactive: 10%

Q: For COc1ccc(N/C(=N/P(=O)(N2CCOCC2)N2CCOCC2)N2CCOCC2)cc1, which inhibition is on record?
A: inactive: -6.21%

Q: Which inhibition does the source give for COC(=O)C1(C)COP(=O)(N2CCCC2)OC1 (stereo not given) here?
A: inactive: 11.7%

Q: With COP1(=S)c2c(C)nn(CCC#N)c2N=C(c2ccc(F)cc2)N1C (stereo not given) as the compound, how does the inhibition read?
A: inactive: -12.2%

Q: With O=C(O)C(=O)c1ccc(N(CCCl)CCCl)cc1 as the compound, how does the inhibition read?
A: inactive: -25.3%

Q: Which inhibition does the source give for O=C(Nc1ccncc1[N+](=O)[O-])c1ccc([N+](=O)[O-])cc1[N+](=O)[O-] here?
A: inactive: -10.8%

Q: For O=C(COc1ccccc1)OC1CN2CCC1CC2 (stereo not given), which inhibition is on record?
A: inactive: -15.5%

Q: With CSc1ccc(Nc2c([N+](=O)[O-])cc([N+](=O)[O-])cc2[N+](=O)[O-])cc1 as the compound, how does the inhibition read?
A: inactive: 64.7%

Q: With O=C(OC1CN2CCC1CC2)c1cccc([N+](=O)[O-])c1 (stereo not given) as the compound, how does the inhibition read?
A: inactive: -0.994%

Q: Which inhibition does the source give for CCOC(=O)c1ccc(NC(=O)C(C)(CCl)SC)cc1 (stereo not given) here?
A: inactive: -47%

Q: With CCC(C)N(CC(C)C)C(=S)SC(NC(C)=O)C(Cl)(Cl)Cl (stereo not given) as the compound, how does the inhibition read?
A: inactive: -6.33%

Q: Which inhibition does the source give for O=C(O)C(O)c1ccc(N(CCCl)CCCl)cc1 (stereo not given) here?
A: inactive: 16.3%

Q: Which inhibition does the source give for CCOC(=O)Nc1ccc([As](=O)(O)O)c(O)c1 here?
A: inactive: -1.97%

Q: Which inhibition does the source give for CC1CCNP(=O)(N(CCCl)CCCl)O1 (stereo not given) here?
A: inactive: 13.4%

Q: With COP(=O)(OC)N1CC1c1ccccc1 (stereo not given) as the compound, how does the inhibition read?
A: inactive: -25.9%

Q: For Cc1cc(SC(NC(=O)c2ccccc2)C(Cl)(Cl)Cl)nc(C(C)C)n1 (stereo not given), which inhibition is on record?
A: inactive: -3.63%

Q: With CCCCOc1ccc(C(=O)NCC2(N3CCCCC3)CCCCC2)cc1OC as the compound, how does the inhibition read?
A: inactive: -13.2%

Q: Which inhibition does the source give for CCOC(=O)Nc1cccc([As](=O)(O)O)c1 here?
A: inactive: -14.5%

Q: With Cc1cc(SC(NC=O)C(Cl)(Cl)Cl)ncn1 (stereo not given) as the compound, how does the inhibition read?
A: inactive: -0.817%

Q: With O=P(Nc1ccccn1)(c1cccc2ccccc12)c1cccc2ccccc12 as the compound, how does the inhibition read?
A: inactive: -9.74%

Q: With O=[N+]([O-])c1ccc(Nc2ccc(Oc3ccc([N+](=O)[O-])cc3[N+](=O)[O-])cc2)c([N+](=O)[O-])c1 as the compound, how does the inhibition read?
A: inactive: 1.35%
